Data on two compounds can be found in USRE47221E1, “Tricyclic compounds” (AbbVie Inc., priority 2009, dated 2019).

By UniProt entry, the sequences of proteins in these tests, tags left out. Residues count along the entry.
UniProt P52333, 811-1103 limits assumed: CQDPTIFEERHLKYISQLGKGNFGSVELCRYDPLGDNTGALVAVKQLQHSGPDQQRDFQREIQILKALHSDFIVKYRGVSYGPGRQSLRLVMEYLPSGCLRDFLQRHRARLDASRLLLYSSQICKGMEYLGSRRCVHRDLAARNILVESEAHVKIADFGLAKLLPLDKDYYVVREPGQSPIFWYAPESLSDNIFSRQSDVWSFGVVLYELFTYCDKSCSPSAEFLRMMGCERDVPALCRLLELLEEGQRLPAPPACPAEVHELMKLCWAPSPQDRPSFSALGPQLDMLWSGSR

For this assay, the target named is Jak3 (Homo sapiens, UniProt P52333). Put plainly: Jak3 enzyme data for selected compounds. The assay is classed as biochemical. The conditions noted are these: read-out: JAK3 enzyme IC50.

As usually defined, the IC50 is the concentration at which inhibition is half-maximal. For `C[C@@H]1C[C@H](NS(=O)(=O)N2CCC[C@@H]2C(F)(F)F)C[C@@H]1c1ncc2cnc3[nH]ccc3n12`, the IC50 is less than 100 nM.

For the compound `O=S(=O)(CCC(F)(F)F)N1CCCCC12CN(c1ncc3cnc4[nH]ccc4n13)C2`, the IC50 is more than 1000 nM.
